From paper PMC7723054
The other results are listed elsewhere or left out.

T1: LIN28A (human?, UniProt Q9H9Z2 1-209)
T1 sequence: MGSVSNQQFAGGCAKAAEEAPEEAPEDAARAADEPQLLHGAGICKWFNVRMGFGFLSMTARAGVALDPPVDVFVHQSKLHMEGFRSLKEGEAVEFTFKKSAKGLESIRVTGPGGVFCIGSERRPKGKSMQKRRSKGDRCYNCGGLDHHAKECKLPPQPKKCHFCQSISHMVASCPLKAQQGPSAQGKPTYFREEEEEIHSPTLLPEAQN

T2: CIRBP (Homo sapiens, UniProt Q14011 1-172)
T2 sequence: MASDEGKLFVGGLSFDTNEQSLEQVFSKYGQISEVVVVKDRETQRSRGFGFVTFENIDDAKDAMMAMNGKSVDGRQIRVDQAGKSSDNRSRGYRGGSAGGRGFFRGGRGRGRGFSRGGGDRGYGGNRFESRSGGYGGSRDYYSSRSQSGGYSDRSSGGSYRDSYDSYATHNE

T3: DHX36 (Homo sapiens, UniProt Q9H2U1 1-1008)
T3 sequence: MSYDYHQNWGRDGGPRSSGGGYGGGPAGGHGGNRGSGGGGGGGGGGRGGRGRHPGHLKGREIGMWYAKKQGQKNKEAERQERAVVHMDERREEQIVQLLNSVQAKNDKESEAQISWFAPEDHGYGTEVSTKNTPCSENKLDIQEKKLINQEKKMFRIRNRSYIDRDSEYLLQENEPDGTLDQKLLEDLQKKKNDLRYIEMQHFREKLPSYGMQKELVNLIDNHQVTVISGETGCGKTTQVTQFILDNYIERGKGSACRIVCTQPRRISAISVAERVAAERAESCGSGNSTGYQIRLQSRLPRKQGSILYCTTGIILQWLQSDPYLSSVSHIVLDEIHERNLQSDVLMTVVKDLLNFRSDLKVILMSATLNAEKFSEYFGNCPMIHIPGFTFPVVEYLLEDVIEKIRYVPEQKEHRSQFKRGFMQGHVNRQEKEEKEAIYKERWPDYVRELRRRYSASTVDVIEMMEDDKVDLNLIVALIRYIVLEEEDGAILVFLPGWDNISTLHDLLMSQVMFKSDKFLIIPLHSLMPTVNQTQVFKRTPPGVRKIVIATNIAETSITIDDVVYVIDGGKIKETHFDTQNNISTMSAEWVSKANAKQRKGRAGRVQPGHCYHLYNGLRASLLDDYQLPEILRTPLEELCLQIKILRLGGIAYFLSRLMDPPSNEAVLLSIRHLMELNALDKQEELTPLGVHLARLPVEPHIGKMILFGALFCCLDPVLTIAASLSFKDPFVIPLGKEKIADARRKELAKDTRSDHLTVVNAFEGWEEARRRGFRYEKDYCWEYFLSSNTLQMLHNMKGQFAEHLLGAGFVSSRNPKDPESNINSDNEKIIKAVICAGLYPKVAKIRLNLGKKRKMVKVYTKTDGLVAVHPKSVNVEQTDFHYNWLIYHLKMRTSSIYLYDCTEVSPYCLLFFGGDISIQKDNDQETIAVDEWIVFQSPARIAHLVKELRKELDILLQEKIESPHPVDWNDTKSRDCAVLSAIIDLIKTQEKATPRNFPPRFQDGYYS

B1: hsa-mir-6838 (structured_RNA)
RNA: GGGAAACGAUGUGGAGGGACAGCCUUGAGGUGUACGAAGUUUCAGCACUCCUAGGUCACGGAAGUGCUGAAGCUUCGUGCAC
B2: hsa-mir-3170 (structured_RNA)
RNA: GGGAACAUAGACAAAGCGCAGAAAGCCUGGUGUACGAAGUUUCAGCCAGUGUUAGCUCCAGAAGCAUUGGCUGAAGCUUCGUGCAC
B3: hsa-mir-4682 (structured_RNA)
RNA: GGGAUUAGGCCACGACAUUCUAGCUUUGGGUGUACGAAGUUUCAGCGUCUGUCACUGGGGAAGUCGCUGAAGCUUCGUGCAC
B4: hsa-mir-4746 (structured_RNA)
RNA: GGGACCACUCUCGUUCAACGCGAAGUCCGGUGUACGAAGUUUCAGCCAGAGGCAUCGGGUCAGGCUGAAGCUUCGUGCAC
B5: hsa-mir-3663 (structured_RNA)
RNA: GGGAAAGAAAAUGGCUGCUGCUAUGGCAGGUGUACGAAGUUUCAGCCUCGGGUGGAUAAGUCUGAUCUGAGGCUGAAGCUUCGUGCAC
B6: hsa-mir-154 (structured_RNA)
RNA: GGGAAACCAGAUUGCGGAUCAGAUACAAGGUGUACGAAGUUUCAGCCCUUCGCUUUAUUUGUGACGAAUCGCUGAAGCUUCGUGCAC
B7: hsa-mir-144 (structured_RNA)
RNA: GGGAAAACGGGAUCCGACAAUGCCCAAGGGUGUACGAAGUUUCAGCUGUAAGUUUGCGAUGAGACACUACAGCUGAAGCUUCGUGCAC
B8: PARIS_ID43 (structured_RNA)
RNA: GGGAGAGCUUGAUGAGACUUGAGUACUAGGUGUACGAAGUUUCAGCCUGGAUCUAUUUCUGGAAAUUUUAGGCUCCAGGCUGAAGCUUCGUGCAC
B9: hsa-mir-8086 (structured_RNA)
RNA: GGGAAGGUAUCGUAAGGAUCAGUCGAACGGUGUACGAAGUUUCAGCUGGUUAGCUUUUUUUUUUUUUUGAGAUGGAGUCUGGCUCGCUGAAGCUUCGUGCAC
B10: hsa-mir-631 (structured_RNA)
RNA: GGGACUCAGUAGCGUCUGAUAGGAGUCAGGUGUACGAAGUUUCAGCCAGCUACACAAGCUGGCUGAAGCUUCGUGCAC
B11: hsa-mir-5703 (structured_RNA)
RNA: GGGAAGGAUCGCCAUGAGAUUUGCAUUCGGUGUACGAAGUUUCAGCUCCCCUCAGGAGCUGAAGCUUCGUGCAC
B12: hsa-mir-4330 (structured_RNA)
RNA: GGGAACAUGUAACCCGCCAAGACCUUAGGGUGUACGAAGUUUCAGCGAGGAUGCAGGAGAGGAAGGGGGCUUCUUUUUGACGCCUACUUCAUCAGCUGCUCCUCGCUGAAGCUUCGUGCAC
B13: hsa-mir-935 (structured_RNA)
RNA: GGGAAGCUAAAUCCCUGCCGACGACAUGGGUGUACGAAGUUUCAGCCUCGGCCAUCCUCCGUCUGCCCAGGCUGAAGCUUCGUGCAC
B14: hsa-mir-6129 (structured_RNA)
RNA: GGGACGGUCGACUCGGCAUGCUUCUACAGGUGUACGAAGUUUCAGCUAUAGGAAGGAAAUCUUAUGCUGAAGCUUCGUGCAC
B15: hsa-mir-5694 (structured_RNA)
RNA: GGGACACGUGGGGUCCCCUGAUUUCAAAGGUGUACGAAGUUUCAGCUCAGCCCCAUAUGUAUCUGAAGGCUGAGCUGAAGCUUCGUGCAC
B16: hsa-mir-8072 (structured_RNA)
RNA: GGGAAGGGGAGAAAGCCUUCUAAUCGAUGGUGUACGAAGUUUCAGCGCAGAGCAGGACGCCGCUGCUGCGCUGAAGCUUCGUGCAC
B17: hsa-mir-1322 (structured_RNA)
RNA: GGGAAUAGAUGUUGGGGACGGUUUCGAGGGUGUACGAAGUUUCAGCAGAAACCUACUUAUUACAUAGUUUACAUAAGAAGCGUGAUGCUGAAGCUUCGUGCAC
B18: hsa-mir-449b (structured_RNA)
RNA: GGGAACGCGGGUACAUUACUCCCUGAUAGGUGUACGAAGUUUCAGCUGGCUGCUUGGGUCAAGUCAGCAGCCAGCUGAAGCUUCGUGCAC
B19: hsa-mir-4739 (structured_RNA)
RNA: GGGACCGUCUAUAGCGCCUACGAUGCAUGGUGUACGAAGUUUCAGCCCCUUGUCUUCCCAGAGGCUGAAGCUUCGUGCAC
B20: hsa-mir-4718 (structured_RNA)
RNA: GGGAAGGGACAGCAUACUACCGUUGUUCGGUGUACGAAGUUUCAGCGCACCUGUUUGUGACGCUGAAGCUUCGUGCAC
B21: hsa-mir-29b-2 (structured_RNA)
RNA: GGGAACUUUCUGGCCCGUGGAUACACUCGGUGUACGAAGUUUCAGCCUUAGAUUUUUCCAUCUUUGUAUCUAGGCUGAAGCUUCGUGCAC
B22: hsa-mir-4484 (structured_RNA)
RNA: GGGAAGCAAAUGUAGGCACGUGAGGACCGGUGUACGAAGUUUCAGCUUUUUUUCCAAUGAAAAUAACGAAACCUGUUAUUUCCCAUUGAGGGGGAAAAAGCUGAAGCUUCGUGCAC
B23: hsa-mir-8079 (structured_RNA)
RNA: GGGAACUAUGCCCGAGAGACCUGUACCGGGUGUACGAAGUUUCAGCUGGCUGUAGGGCAGCAGUCAGCUGAAGCUUCGUGCAC
B24: hsa-mir-579 (structured_RNA)
RNA: GGGAGCCCCGACAUAGAAUAGCCUUGAGGGUGUACGAAGUUUCAGCGACGAUUUGAAUUAAUAAAUUCGCUGAAGCUUCGUGCAC
B25: hsa-mir-6734 (structured_RNA)
RNA: GGGAAACCUGCAUAUGUGGUCGCUCAUCGGUGUACGAAGUUUCAGCAGAAGCCCAGGUUCUGAAUCCCCUGCUGAAGCUUCGUGCAC
B26: hsa-mir-4649 (structured_RNA)
RNA: GGGACUGGAAUGCCAUGGAGGCGAUUUAGGUGUACGAAGUUUCAGCCAGAGGGGCUGGCAGUACUGCUCUGGCUGAAGCUUCGUGCAC

What follows are binders tested against T1, LIN28A (assay: FOREST: bead pull-down of RNA structure library v1, barcode microarray; U1A/LIN28A: 20 mM HEPES pH 7.5, 80 mM KCl, 20 mM NaCl, 10% glycerol, 2 mM DTT, 0.1 ug/uL BSA, 4 C; BG4/CIRBP/DHX36: 10 mM Tris-HCl pH 7.5, 100 mM KCl (or LiCl),; high values mean tight binding).

| Binder | binding signal |
| --- | --- |
| B1 | 0.115 z-score |
| B2 | 0.114 z-score |
| B3 | 0.112 z-score |
| B4 | 0.11 z-score |
| B5 | 0.109 z-score |
| B6 | 0.109 z-score |
| B7 | 0.104 z-score |
| B8 | 0.102 z-score |
| B9 | 0.102 z-score |
| B10 | 0.0977 z-score |
| B11 | 0.0955 z-score |
| B12 | 0.0903 z-score |
| B13 | 0.0894 z-score |
| B14 | 0.0885 z-score |
| B15 | 0.0874 z-score |
| B16 | 0.0803 z-score |
| B17 | 0.076 z-score |
| B18 | 0.0758 z-score |
| B19 | 0.0756 z-score |
| B20 | 0.0647 z-score |
| B21 | 0.0548 z-score |
| B22 | 0.0519 z-score |
| B23 | 0.0485 z-score |
| B24 | 0.0454 z-score |
| B25 | 0.0441 z-score |
| B26 | 0.0432 z-score |

What follows are binders tested against T2, CIRBP in the same assay as above.

| Binder | binding signal |
| --- | --- |
| B1 | 1.33 z-score |
| B2 | -0.304 z-score |
| B3 | -0.703 z-score |
| B4 | -0.271 z-score |
| B5 | 1.63 z-score |
| B6 | 0.0352 z-score |
| B7 | -0.559 z-score |
| B8 | -0.966 z-score |
| B9 | -0.408 z-score |
| B10 | 0.12 z-score |
| B11 | 0.606 z-score |
| B12 | 0.997 z-score |
| B13 | 0.0532 z-score |
| B14 | 0.486 z-score |
| B15 | -1.92 z-score |
| B16 | -1.29 z-score |
| B17 | -0.437 z-score |
| B18 | -0.338 z-score |
| B19 | -0.0505 z-score |
| B20 | -0.397 z-score |
| B21 | 0.473 z-score |
| B22 | 0.118 z-score |
| B23 | 0.104 z-score |
| B24 | -0.0194 z-score |
| B25 | 0.05 z-score |
| B26 | -0.624 z-score |

Each binder was assayed against T3, DHX36 in the same assay as above.

| Binder | binding signal |
| --- | --- |
| B1 | 0.204 z-score |
| B2 | -0.4 z-score |
| B3 | 0.105 z-score |
| B4 | 0.0261 z-score |
| B5 | 0.381 z-score |
| B6 | -0.494 z-score |
| B7 | -1.14 z-score |
| B8 | 0.201 z-score |
| B9 | -0.257 z-score |
| B10 | -0.495 z-score |
| B11 | -0.348 z-score |
| B12 | 1.61 z-score |
| B13 | -0.748 z-score |
| B14 | -0.412 z-score |
| B15 | -1.17 z-score |
| B16 | -1.13 z-score |
| B17 | -0.996 z-score |
| B18 | 0.387 z-score |
| B19 | -0.129 z-score |
| B20 | -0.108 z-score |
| B21 | -0.188 z-score |
| B22 | -0.00798 z-score |
| B23 | 0.693 z-score |
| B24 | -0.666 z-score |
| B25 | 0.417 z-score |
| B26 | 0.404 z-score |
